Reference: US10023570B2 (Array BioPharma, Inc., priority 2015, dated 2018)

Amino acid sequences for entries named in this document (tags omitted). Residues count along the entry.
UniProt P07949, 29-1114 limits assumed: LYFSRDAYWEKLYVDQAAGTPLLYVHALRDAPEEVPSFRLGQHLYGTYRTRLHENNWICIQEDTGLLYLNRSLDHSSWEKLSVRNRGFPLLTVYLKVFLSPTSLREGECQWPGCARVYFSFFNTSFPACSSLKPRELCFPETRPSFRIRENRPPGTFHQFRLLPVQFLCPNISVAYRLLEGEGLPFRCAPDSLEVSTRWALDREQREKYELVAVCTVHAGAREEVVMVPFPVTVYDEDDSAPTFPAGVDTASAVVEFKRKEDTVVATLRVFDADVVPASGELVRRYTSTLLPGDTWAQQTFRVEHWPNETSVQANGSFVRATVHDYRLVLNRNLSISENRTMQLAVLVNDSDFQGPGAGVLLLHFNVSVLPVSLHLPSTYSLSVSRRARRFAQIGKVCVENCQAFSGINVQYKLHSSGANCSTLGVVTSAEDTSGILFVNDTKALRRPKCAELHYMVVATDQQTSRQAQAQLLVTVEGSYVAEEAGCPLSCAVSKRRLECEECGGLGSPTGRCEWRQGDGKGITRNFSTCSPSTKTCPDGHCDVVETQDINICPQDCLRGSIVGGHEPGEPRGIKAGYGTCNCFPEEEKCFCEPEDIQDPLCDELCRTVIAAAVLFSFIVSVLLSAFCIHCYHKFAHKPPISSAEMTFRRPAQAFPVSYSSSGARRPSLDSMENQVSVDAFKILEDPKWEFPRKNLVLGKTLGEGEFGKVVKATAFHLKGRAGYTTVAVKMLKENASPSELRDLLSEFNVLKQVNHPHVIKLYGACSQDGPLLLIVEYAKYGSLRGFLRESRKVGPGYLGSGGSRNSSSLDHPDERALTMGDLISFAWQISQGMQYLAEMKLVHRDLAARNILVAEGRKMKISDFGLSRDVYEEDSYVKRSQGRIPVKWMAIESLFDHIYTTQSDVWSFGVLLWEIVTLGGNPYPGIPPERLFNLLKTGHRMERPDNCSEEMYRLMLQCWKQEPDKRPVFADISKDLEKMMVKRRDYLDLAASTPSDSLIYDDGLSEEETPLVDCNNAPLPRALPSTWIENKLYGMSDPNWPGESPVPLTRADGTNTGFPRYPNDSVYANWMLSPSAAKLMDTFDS
UniProt P07949, 658-1114: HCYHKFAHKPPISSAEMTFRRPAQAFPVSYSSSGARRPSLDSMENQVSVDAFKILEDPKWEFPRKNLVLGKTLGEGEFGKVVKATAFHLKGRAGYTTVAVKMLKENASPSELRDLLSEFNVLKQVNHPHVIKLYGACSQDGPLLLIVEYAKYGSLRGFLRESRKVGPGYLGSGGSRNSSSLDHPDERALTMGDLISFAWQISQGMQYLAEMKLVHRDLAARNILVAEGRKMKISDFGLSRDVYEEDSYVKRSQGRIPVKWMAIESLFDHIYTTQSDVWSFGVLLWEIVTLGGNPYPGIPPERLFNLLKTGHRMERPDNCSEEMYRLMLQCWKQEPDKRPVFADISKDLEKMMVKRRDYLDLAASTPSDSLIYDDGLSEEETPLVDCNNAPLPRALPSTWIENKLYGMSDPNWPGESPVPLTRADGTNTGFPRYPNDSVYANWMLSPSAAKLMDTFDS
UniProt P35968, 20-1356: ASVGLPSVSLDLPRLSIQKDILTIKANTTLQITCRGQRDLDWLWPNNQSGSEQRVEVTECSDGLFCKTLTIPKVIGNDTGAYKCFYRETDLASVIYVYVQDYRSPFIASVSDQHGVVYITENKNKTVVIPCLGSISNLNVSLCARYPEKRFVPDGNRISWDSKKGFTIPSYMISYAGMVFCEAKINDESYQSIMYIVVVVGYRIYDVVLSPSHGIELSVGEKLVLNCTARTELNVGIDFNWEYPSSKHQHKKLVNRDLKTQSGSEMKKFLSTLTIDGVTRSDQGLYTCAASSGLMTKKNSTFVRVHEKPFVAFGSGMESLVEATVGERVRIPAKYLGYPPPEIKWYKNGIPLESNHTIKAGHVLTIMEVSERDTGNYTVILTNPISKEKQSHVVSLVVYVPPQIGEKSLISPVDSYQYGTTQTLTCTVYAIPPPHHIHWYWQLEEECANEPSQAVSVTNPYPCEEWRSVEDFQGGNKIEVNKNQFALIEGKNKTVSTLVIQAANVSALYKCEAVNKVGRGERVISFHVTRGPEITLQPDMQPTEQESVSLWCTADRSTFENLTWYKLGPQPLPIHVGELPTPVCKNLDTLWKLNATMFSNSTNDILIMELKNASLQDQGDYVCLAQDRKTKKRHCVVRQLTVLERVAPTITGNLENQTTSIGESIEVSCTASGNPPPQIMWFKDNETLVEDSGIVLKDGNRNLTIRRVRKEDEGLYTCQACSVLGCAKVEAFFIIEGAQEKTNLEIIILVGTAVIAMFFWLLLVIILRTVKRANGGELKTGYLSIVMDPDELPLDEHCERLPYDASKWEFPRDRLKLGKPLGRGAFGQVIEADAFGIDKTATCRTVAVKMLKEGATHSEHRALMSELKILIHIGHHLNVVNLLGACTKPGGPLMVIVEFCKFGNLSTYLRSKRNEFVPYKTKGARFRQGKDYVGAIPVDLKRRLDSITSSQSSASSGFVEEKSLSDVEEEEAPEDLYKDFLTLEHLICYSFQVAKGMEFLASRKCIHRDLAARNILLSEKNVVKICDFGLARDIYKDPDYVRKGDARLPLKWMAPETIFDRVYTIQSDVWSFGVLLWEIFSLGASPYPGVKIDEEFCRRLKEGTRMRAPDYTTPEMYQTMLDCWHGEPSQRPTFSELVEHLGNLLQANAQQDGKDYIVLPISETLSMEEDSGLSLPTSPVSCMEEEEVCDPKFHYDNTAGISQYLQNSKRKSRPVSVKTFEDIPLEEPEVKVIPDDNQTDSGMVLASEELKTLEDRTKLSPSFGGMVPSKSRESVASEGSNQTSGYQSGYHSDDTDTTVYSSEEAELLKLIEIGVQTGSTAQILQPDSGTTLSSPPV

Assays:
[1] = biological target: Kif5b-RET fusion protein in HEK-293 cells (Homo sapiens, UniProt P07949); assay: cell-based
[2] = biological target: N-terminal GST tagged recombinant human RET cytoplasmic domain (aa 658-end), wild type RET kinase (Homo sapiens (Human), UniProt P07949); assay: RET Enzyme Assay (HTRF KinEASE-TK), wild type RET; format: biochemical
[3] = biological target: human KDR protein in HEK-293 cells (Homo sapiens (Human), UniProt P35968); assay: KDR Cell Assay (phospho-KDR in HEK-293 cells expressing inducible KDR); format: cell-based; details: pKDR Cell HEK 10% FBS IC50

Row | Structure (SMILES) | IC50 [1] [nM] | IC50 ([2]; wild type RET, 1 mM ATP) [nM] | IC50 [3] [nM] | IC50 [2] [nM]
1 | C[C@@H](c1ccccc1)N1CCN(c2ccc(-c3cc(-c4cnn(C)c4)cn4ncc(C#N)c34)cn2)CC1 [Example 422, (S)-6-(1-methyl-1H-pyrazol-4-yl)-4-(6-(4-(1-phenylethyl)piperazin-1-yl)pyridine-3-yl)pyrazolo[1,5-a]pyridine-3-carbonitrile dihydrochloride] | 13.1 |  |  | 
2 | CC(C)N1CCN(c2ccc(-c3cc(-c4cnn(C)c4)cn4ncc(C#N)c34)cn2)CC1 [Example 410, 4-(6-(4-isopropylpiperazin-1-yl)pyridin-3-yl)-6-(1-methyl-1H-pyrazol-4-yl)pyrazolo[1,5-a]pyridine-3-carbonitrile] | 104 | 38.4 |  | 
3 | CC(C)N(C)C(=O)C1CCN(c2ccc(-c3cc(-c4cnn(C)c4)cn4ncc(C#N)c34)cn2)CC1 [Example 247, 1-(5-(3-cyano-6-(1-methyl-1H-pyrazol-4-yl)pyrazolo[1,5-a]pyridin-4-yl)pyridin-2-yl)-N-isopropyl-N-methylpiperidine-4-carboxamide] | 167 | 48.1 |  | 
4 | CC(C)(C)OC(=O)N1CC(n2cc(-c3cc(-c4ccc(N5CCN(Cc6ccccc6)CC5)nc4)c4c(C#N)cnn4c3)cn2)C1 [Example 594, tert-butyl 3-(4-(4-(6-(4-benzylpiperazin-1-yl)pyridin-3-yl)-3-cyanopyrazolo[1,5-a]pyridine-6-yl)-1H-pyrazol-1-yl)azetidine-1-carboxylate] |  |  | 762 | 
5 | Cn1cc(-c2cc(-c3ccc(N4CCN(S(C)(=O)=O)CC4)nc3)c3c(C#N)cnn3c2)cn1 [Example 88] | 43.3 | 9.8 |  | 
6 | C[C@H](c1ccccc1)N1CCN(c2ccc(-c3cc(-c4cnn(C)c4)cn4ncc(C#N)c34)cn2)CC1 [Example 421, (R)-6-(1-methyl-1H-pyrazol-4-yl)-4-(6-(4-(1-phenylethyl)piperazin-1-yl)pyridin-3-yl)pyrazolo[1,5-a]pyridine-3-carbonitrile dihydrochloride] | 11 |  |  | 18
7 | CN(C)C(=O)N1CCN(c2ccc(-c3cc(-c4cnn(C)c4)cn4ncc(C#N)c34)cn2)CC1 [Example 132] | 16.1 | 11.2 |  | 
8 | CC(C)CS(=O)(=O)N1CCN(c2ccc(-c3cc(-c4cnn(C)c4)cn4ncc(C#N)c34)cn2)CC1 [Example 90] | 4.3 | 5.2 |  | 

Where a name gives a salt, the structure may show the parent alone. Read-outs that look alike come from different tables or passages of the source.
